Test results from patent US11266655B2, “Methods and compositions for treating urea cycle disorders” (Camp4 Therapeutics Corporation, priority 2019, dated 2022).
Where two headings read alike, the source gives them in different places.

Key:
SLC25A15 = test: RNA-seq of compound-treated primary human hepatocytes, SLC25A15 expression; format: cell-based
ARG1 = test: RNA-seq of compound-treated primary human hepatocytes, ARG1 expression; format: cell-based; details: for Fold change (Log 2) vs untreated, ARG1 expression: primary human hepatocytes, RNA-seq (Table 7)
ASL = test: RNA-seq of compound-treated primary human hepatocytes, ASL expression; format: cell-based
urea cycle genes = test: RNA-seq of primary human hepatocytes, compounds that modulate multiple urea cycle-related genes; format: cell-based
OTC = test: RNA-seq of compound-treated primary human hepatocytes, OTC expression; format: cell-based
CPS1 = test: RNA-seq of compound-treated primary human hepatocytes, CPS1 expression; format: cell-based
ASS1 = test: RNA-seq of compound-treated primary human hepatocytes, ASS1 expression; format: cell-based; details: RNA-seq (Table 4)
NAGS = format: cell-based, human
[1] = primary human hepatocytes, RNA-seq
[2] = primary human hepatocytes, RNA-seq, urea cycle-related genes significantly increased (Table 10)

CC1(COc2ccc3c(c2)ncn3-c2ccc3cccc(N4CCC(N)CC4)c3n2)COC1 [Crenolanib]
Increase in SLC25A15 gene expression (qualitative) (SLC25A15): greatest increase | increase in ARG1 gene expression (Tables 17, 18, FIG. 9, 10) (ARG1): greatest increase | increase in ASL gene expression (Table 25, FIG. 17) (ASL): greatest increase | Up-regulated Genes (urea cycle genes): ASS1, ASL, OTC, ARG1 | number of urea cycle genes whose expression was significantly up-regulated (urea cycle genes): four | increase in OTC gene expression (Table 14, FIG. 6) (OTC): significant increase

CC[C@@H]1/C=C/C=C/C[C@H](C)[C@H](O)[C@](C)(O)C(=O)[C@H](C)[C@@H](O)[C@H](C)C(=O)[C@H](C)[C@@H](O)[C@H](C)/C=C/C(=O)O[C@H]2[C@@H](C)[C@@H](CC1)O[C@@]1(CC[C@@H](C)[C@@H](C[C@H](C)O)O1)[C@@H]2C [Oligomycin A]
Fold change (Log 2) vs untreated, ARG1 expression (ARG1): 0.75 Log 2 | ASL expression, Fold change (Log 2) vs untreated (ASL; [1]): 0.84 Log 2

C1=C/COCc2cc(ccc2OCCN2CCCC2)Nc2nccc(n2)-c2cccc(c2)COC/1 [Pacritinib (SB1518), Pacritinib]
number of urea cycle genes whose expression was significantly up-regulated (urea cycle genes; [1]): five | Up-regulated Genes (urea cycle genes; [2]): CPS1, ASS1, ASL, OTC, ARG1

BMP2: Bone morphogenetic protein 2 (BMP2) belongs to the TGF-B superfamily
Fold change (Log 2) vs untreated, ARG1 expression (ARG1): 0.81 Log 2 | CPS1 expression, Fold change (Log 2) vs untreated (CPS1): 1.31 Log 2 | Fold change (Log 2) vs untreated, ASS1 expression (ASS1): 0.75 Log 2 | number of urea cycle genes whose expression was significantly up-regulated (urea cycle genes; [1]): four | Up-regulated Genes (urea cycle genes; [2]): ASS1, CPS1, NAGS, ARG1 | Fold change (Log 2) vs untreated, NAGS expression (NAGS): 0.6 Log 2
